Values of other authors in publication PMC8688301 (Environment international, 2021).

Details: animal studies; ref Mörck et al., 2003; cited from earlier work

Question: Which absorbed fraction does the source give for `Brc1c(Br)c(Br)c(CCc2c(Br)c(Br)c(Br)c(Br)c2Br)c(Br)c1Br` [DBDPE, decabromodiphenyl ethane] here?
Answer: The absorbed fraction was 10%.
